# The list shows a part of the results, in another mix than the full data. Activity calls are given as the source filed them. How the source made its calls: active means hit-call score of the fitted dose curve at least 0.9, where 1 is the maximum; inactive means score below 0.9.
# What was measured:
# Conditions in all cases: actives raise or lower the signal; mRNA level, 48 h
# [1] = read-out: Interleukin 6 Receptor (IL6R), IL6R (gene 3570); test: LTEA_HepaRG_IL6R: Life Technologies and Expression Analysis (LTEA) Assay for Interleukin 6 Receptor (IL6R) using HepaRG (AID 2283510)
# In short: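 In this HepaRG screen, test chemicals act on cells for 48 h at up to 100 uM (eight half-log points, duplicate wells). IL6R expression is quantified by qRT-PCR after normalization to ACTB, GAPDH and POLR2A, with DMSO as baseline.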
# [2] = read-out: Potassium channel subfamily K member 1 (KCNK1), KCNK1 (gene 3775); test: LTEA_HepaRG_KCNK1: Life Technologies and Expression Analysis (LTEA) Assay for Potassium channel subfamily K member 1 (KCNK1) using HepaRG (AID 2283511)
# In short: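 KCNK1 transcript measured by TaqMan qRT-PCR against three housekeeping genes, after HepaRG cells were treated 48 h with eight half-log concentrations (top 100 uM, 0.5% DMSO). Curves fitted bidirectionally relative to vehicle.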
# [3] = read-out: Keratin 19 (KRT19), KRT19 (gene 3880); test: LTEA_HepaRG_KRT19: Life Technologies and Expression Analysis (LTEA) Assay for Keratin 19 (KRT19) using HepaRG (AID 2283512)
# [4] = read-out: JUN Transcription Factor, JUN (gene 3725); test: LTEA_HepaRG_JUN: Life Technologies and Expression Analysis (LTEA) Assay for JUN Transcription Factor using HepaRG (AID 2283513)
# Procedure: (§1) LTEA_HepaRG is a cell based, multiplexed-readout assay that uses HepaRG, a human liver cell line, with measurements taken at 48 hours after chemical dosing on a 96-well plate.LTEA_HepaRG_JUN is one of 102 assay component(s) measured in the LTEA HepaRG cell culture assay. It is a marker of Cell proliferation, survival, death.Data from the assay component LTEA_HepaRG_JUN was analyzed into 1 endpoint. This assay endpoint, LTEA_HepaRG_JUN, was analyzed with bidirectional fitting relative to DMSO as the negative control and baseline of activity. Using a type of inducible reporter, measures of mRNA induction for gain or loss-of-signal activity can be used to understand regulation of transcription factor activity. To generalize the intended target to other relatable targets, this assay endpoint is annotated to the dna binding intended target family, where the subfamily is basic leucine zipper.
# (§2) A total of 1060 chemcials from the ToxCast library were tested in eight-point concentration-response experiments. Cell culture and cytotoxicity assays were conducted at Thermo Fisher Scientific's Custom Services facility (Madison, WI). A single lot of human HepaRG cells (Thermo Fisher Scientific, Frederick, MD) was used for the cell culture experiments. 96-well format collagen type I coated plates of human HepaRG cells were prepared using established methods. Briefly, cryopreserved HepaRG cells were thawed, plated at a density of approximately 100,000 cells/well in HepaRG Thaw, Plate, and General Purpose media (HPRG770, Thermo Fisher Scientific), and incubated for 48 hours. 0.5% DMSO was selected as vehicle control to balance the requisite need of DMSO in HepaRG cultures to maintain differentiation (for example, baseline metabolism, proportions of hepatocytes vs. cholangiocytes), while enabling further hepatic receptor pathway activation (for example, PXR and CAR) in response to chemical exposure. 48 hours after plating, the culture medium was replaced with HepaRG Serum-Free Incudtion Media. Cells were exposed to each test chemical in duplicate and maintained in CO2 incubators for another 48 hours. Chemical plates were thawed to room temperature and 200x concentrations of treatment groups were prepared. 8-point conentration-reponse curves were made with the highest exposure at 100 uM, followed by half-log dilutions, all in 0.5% DMSO. […] Fluidigm's 96.96 Dynamic ArrayTM (Fluidigm, Amsterdam, the Netherlands) technology was used for gene expression analyses by quantitative reverse transcription polymerase chain reaction (qRT-PCR, performed by Quintiles/Expression Analysis, Durham, NC)89. […]
# [5] = read-out: Lipase C (LIPC), LIPC (gene 3990); test: LTEA_HepaRG_LIPC: Life Technologies and Expression Analysis (LTEA) Assay for Lipase C (LIPC) using HepaRG (AID 2283514)
# In short: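 LIPC expression was quantified by qRT-PCR against three housekeeping genes (ACTB, GAPDH, POLR2A). Differentiated human HepaRG cells received eight half-log doses (top 100 uM, 0.5% DMSO) in duplicate for 48 h; fitting bidirectional relative to DMSO.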
# [6] = read-out: Lipoprotein lipase (LPL), LPL (gene 4023); test: LTEA_HepaRG_LPL: Life Technologies and Expression Analysis (LTEA) Assay for Lipoprotein lipase (LPL) using HepaRG (AID 2283515)
# In short: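 LPL transcript levels quantified by TaqMan qRT-PCR against three housekeeping genes after 48 h chemical treatment of HepaRG cells. Eight-point half-log series from 100 uM in 0.5% DMSO, tested in duplicate; bidirectional fitting versus vehicle.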
# [7] = read-out: MicroRNA 122 (MIR122), gene 406906; test: LTEA_HepaRG_MIR122: Life Technologies and Expression Analysis (LTEA) Assay for MicroRNA 122 (MIR122) using HepaRG (AID 2283516); further: the transcript read is the microRNA miR-122
# In short: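 Changes in transcript abundance, up or down relative to 0.5% DMSO vehicle, were scored after 48 h chemical treatment of HepaRG cells (maximum 100 uM). Quantification used TaqMan qRT-PCR normalized to housekeeping genes.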
# [8] = read-out: matrix metalloproteinase-10 (MMP10), MMP10 (gene 4319); test: LTEA_HepaRG_MMP10: Life Technologies and Expression Analysis (LTEA) Assay for matrix metalloproteinase-10 (MMP10) using HepaRG (AID 2283517)
# In short: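 Expression measured by TaqMan qRT-PCR with ACTB/GAPDH/POLR2A normalisation after 48 h chemical exposure of HepaRG cells. Eight half-log concentrations, top 100 uM, 0.5% DMSO vehicle, duplicates; gain or loss fitted against vehicle.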
# [9] = read-out: MYC, MYC (gene 4609); test: LTEA_HepaRG_MYC: Life Technologies and Expression Analysis (LTEA) Assay for MYC using HepaRG (AID 2283518)
# In short: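 Differentiated HepaRG cells exposed 48 h in serum-free induction medium to 8 concentrations (top 100 uM, half-log steps; 0.5% DMSO), duplicate. MYC mRNA measured by Fluidigm qRT-PCR, normalized to ACTB, GAPDH, POLR2A; bidirectional fit versus DMSO.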
# [10] = read-out: matrix metalloproteinase-3 (MMP3), MMP3 (gene 4314); test: LTEA_HepaRG_MMP3: Life Technologies and Expression Analysis (LTEA) Assay for matrix metalloproteinase-3 (MMP3) using HepaRG (AID 2283519)
# Procedure: as §1, with “plate.LTEA_HepaRG_MMP3” for “plate.LTEA_HepaRG_JUN”, “Fibrosis.Data” for “Cell proliferation, survival, death.Data”, “LTEA_HepaRG_MMP3” for “LTEA_HepaRG_JUN”, “LTEA_HepaRG_MMP3,” for “LTEA_HepaRG_JUN,”, “protease” for “dna binding”, “matrix metalloproteinase.” for “basic leucine zipper.”
# as §2, with “DMSO. Each test plate contained variouse controls, induction positive controls (1mM phenobarbital), cytotoxicity positive controls ([…] aflatoxin B1), vehicle controls (0.5% DMSO), and total lysis controls (0.5% DMSO).” for “DMSO.”
smiles,measurement,setting,value
CN(C(=O)Cc1cccc2occc12)[C@H]1CC[C@@]2(CCCO2)C[C@@H]1N1CCCC1,outcome,[1],inactive
same,outcome,[2],inactive
same,outcome,[3],inactive
same,outcome,[4],inactive
same,outcome,[5],inactive
same,outcome,[6],inactive
same,outcome,[7],inactive
same,outcome,[8],inactive
same,outcome,[9],inactive
same,outcome,[10],inactive
Cc1cc([N+](=O)[O-])cc([N+](=O)[O-])c1O,outcome,[2],inactive
same,AC50,[3],active: 23.3 µM
same,AC50,[4],active: 6.97 µM
same,AC50,[5],active: 9.43 µM
same,AC50,[6],active: 82.4 µM
same,AC50,[7],active: 14.9 µM
same,AC50,[9],active: 38.5 µM
same,outcome,[10],inactive
O=C1C2CC=CCC2C(=O)N1SC(Cl)(Cl)C(Cl)Cl (configuration not stated),outcome,[1],inactive
same,outcome,[2],inactive
same,outcome,[4],inactive
same,outcome,[5],inactive
same,AC50,[6],active: 50 µM
same,outcome,[7],inactive
same,outcome,[8],inactive
same,outcome,[9],inactive
same,outcome,[10],inactive
CC(C)OP(=S)(OC(C)C)SCCNS(=O)(=O)c1ccccc1,outcome,[1],inactive
same,AC50,[2],active: 50 µM
same,outcome,[3],inactive
same,AC50,[4],active: 87.6 µM
same,outcome,[5],inactive
same,AC50,[6],active: 86.1 µM
same,AC50,[7],active: 50 µM
same,AC50,[8],active: 77.5 µM
same,AC50,[9],active: 81.7 µM
same,AC50,[10],active: 78.9 µM

# From PubChem BioAssay (EPA / NIEHS)
